This passage reports IC50 results from US6258825A, “2-oxoimidazole derivatives” (dated 2001).

Each structure is given as a SMILES string.

Experiment [1] deals with T1, nociceptin receptor ORL1 (Homo sapiens, UniProt P41146). The experiment can be described thus: Antagonism against nociceptin-elicited G protein activation. The note with it: read-out: IC50 Value (antagonism against nociceptin-elicited G protein activation); GTPγ[35S] binding 200 pM, 50 nM nociceptin, CHO/ORL1 membrane, SPA, pH 7.4, 25° C., 150 minutes. (In general: GTPγS resists hydrolysis and so accumulates on activated G proteins.)

Experiment [2] concerns the target T1, nociceptin receptor ORL1. The experiment can be described thus: Nociceptin receptor binding inhibition assay. The note with it: read-out: IC50 value (nociceptin receptor binding inhibition effect); [125I]Tyr14-Nociceptin 50 pM, CHO/ORL1 membrane 11 μg, SPA, pH 7.4, 37° C., 60 minutes.

For the compound `O=c1n(CC(F)F)c2ccccc2n1[C@@H]1CCN(CC2CCCCCCC2)C[C@H]1CO` (racemic), the concentration for half-maximal inhibition (IC50) in experiment [1] is 5.8 nM; in experiment [2] it was 1.9 nM.

For the compound `CCn1c(=O)n([C@H]2CCN(CC3CCCCCCC3)C[C@@H]2CO)c2ccccc21` (relative stereo), the results for the IC50 in experiment [1] and in experiment [2] were 18 nM and 1.8 nM, respectively.

Turning to `NCCn1c(=O)n([C@H]2CCN(CC3CCCCCCC3)C[C@@H]2CO)c2ccccc21` (relative stereo), the IC50 stood at 27 nM in experiment [1] and 3 nM in experiment [2].

In the case of `CCn1c(=O)n(C2CCN(CC3CCCCCCC3)CC2CNS(N)(=O)=O)c2ccccc21` (single isomer, unassigned), the IC50 in experiment [1] was determined as 12 nM; in experiment [2], 2.3 nM.

As a reminder, the IC50 is the concentration needed to halve the response being measured.
